Biological target: NAMPT (Homo sapiens (Human), UniProt P43490)
Details: read-out: TR-FRET Binding IC50 (μM) probe 1

Chains of the proteins cited; added tags and fusions are not shown. Lines headed by an entry give the natural chain unless they say otherwise; changes in a name come on top.
UniProt P43490: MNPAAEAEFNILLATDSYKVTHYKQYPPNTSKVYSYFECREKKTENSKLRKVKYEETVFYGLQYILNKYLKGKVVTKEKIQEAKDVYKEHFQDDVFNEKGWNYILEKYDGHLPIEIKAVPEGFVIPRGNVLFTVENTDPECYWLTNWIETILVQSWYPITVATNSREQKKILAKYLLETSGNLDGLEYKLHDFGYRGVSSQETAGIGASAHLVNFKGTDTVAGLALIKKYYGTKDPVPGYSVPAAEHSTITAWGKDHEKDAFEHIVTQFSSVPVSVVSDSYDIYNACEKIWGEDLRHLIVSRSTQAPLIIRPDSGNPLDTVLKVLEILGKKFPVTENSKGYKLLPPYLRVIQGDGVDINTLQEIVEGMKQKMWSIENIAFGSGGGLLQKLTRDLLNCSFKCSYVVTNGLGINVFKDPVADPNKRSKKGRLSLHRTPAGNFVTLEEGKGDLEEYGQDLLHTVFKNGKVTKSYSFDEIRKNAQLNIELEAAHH

With “N-{4-[(3R)-3-(butyrylamino)pyrrolidin-1-yl]phenyl}-1,3-dihydro-2H-isoindole-2-carboxamide and N-{4-[(3S)-3-(butyrylamino)pyrrolidin-1-yl]phenyl}-1,3-dihydro-2H-isoindole-2-carboxamide [Example 340]” as the substance, how does the IC50 read?
Its IC50 is 0.783 µM.

Reference: US9302989B2 (priority 2010, dated 2016)
